Target: LMPTP-A (Low Molecular Weight Protein Tyrosine Phosphatase-A) enzyme (Homo sapiens (Human), UniProt P24666)
Test: LMPTP primary screening / LMPTP (OMFP) enzyme inhibition assay, fluorescence intensity
Type: biochemical
Conditions: SAR discussion

Protein sequences, listed by entry. Tags and fused reporters are not part of them.
UniProt P24666, whole entry: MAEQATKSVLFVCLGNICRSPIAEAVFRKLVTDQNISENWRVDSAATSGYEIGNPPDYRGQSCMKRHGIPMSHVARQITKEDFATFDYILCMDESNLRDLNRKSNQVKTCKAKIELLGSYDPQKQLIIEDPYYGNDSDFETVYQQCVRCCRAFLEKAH

potency in the LMPTP (OMFP) assay, in words: potency was less than the screening hit
SMILES: c1ccc(-c2cc(N3CCCCC3)c3ccccc3n2)cc1

— patent US11220486B2 (La Jolla Institute of Allergy & Immunology, priority 2014, dated 2022)
